Molecular target: Fatty-acid amide hydrolase 1 (Rattus norvegicus, UniProt P97612)

The chains behind the UniProt entries cited, without tags or fusion partners.
UniProt P97612, whole entry: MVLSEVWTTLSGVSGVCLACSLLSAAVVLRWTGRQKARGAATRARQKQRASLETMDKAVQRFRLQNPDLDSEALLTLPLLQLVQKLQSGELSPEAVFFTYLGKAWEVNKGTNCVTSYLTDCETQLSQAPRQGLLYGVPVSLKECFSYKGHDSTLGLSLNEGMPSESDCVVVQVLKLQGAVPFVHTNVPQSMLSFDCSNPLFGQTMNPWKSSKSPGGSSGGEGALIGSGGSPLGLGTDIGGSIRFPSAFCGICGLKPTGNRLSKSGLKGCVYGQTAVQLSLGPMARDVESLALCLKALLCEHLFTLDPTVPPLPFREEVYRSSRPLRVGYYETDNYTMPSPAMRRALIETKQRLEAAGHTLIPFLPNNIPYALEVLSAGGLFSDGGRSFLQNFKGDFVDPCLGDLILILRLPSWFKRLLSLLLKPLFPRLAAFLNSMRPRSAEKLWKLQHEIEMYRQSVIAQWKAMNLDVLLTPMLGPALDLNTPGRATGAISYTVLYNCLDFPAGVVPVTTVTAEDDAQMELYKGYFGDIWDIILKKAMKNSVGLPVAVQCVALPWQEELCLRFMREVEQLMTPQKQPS

SMILES	IC50 [nM]
O[C@@H](CNc1cc(-c2ccc(OCC(F)(F)F)c(F)c2)ncn1)c1ccccc1	86
O[C@@H](CNc1cc(-c2ccc(Cl)c(C(F)(F)F)c2)ncn1)c1ccccc1	210
O[C@@H](CNc1cc(-c2ccc(C(F)(F)F)cc2)ncn1)c1ccccc1	94

These reach a lower IC50. Values come first.

IC50 [nM]	SMILES
39	O[C@@H](CNc1cc(-c2ccc(OC(F)(F)F)c(F)c2)ncn1)c1ccccc1
7	O[C@@H](CNc1cc(-c2ccc(C(F)(F)F)c(Cl)c2)ncn1)c1ccc(F)c(F)c1
5.4	CC(=O)c1ccc(-c2cc(NC[C@H](O)c3ccccc3)ncn2)cc1F
